The source of these data is article PMC8589634 (The Journal of Prevention of Alzheimer's Disease, 2021).

Series [1] concerns patients treated with aducanumab. In words: Aducanumab ARIA and amyloid PET. The format is in vivo, human. To be noted: one patient, 44 months, 31 infusions, cumulative dose 124mg/kg.
The test system is the same in series [2]. As to conditions: cited from earlier work.

Take “aducanumab: anti-amyloid monoclonal antibody”: in series [1], the “asymptomatic ARIA episodes” value turned out to be 6. Also, in series [2] (10 mg/kg), the “ARIA-E incidence, APOE ε4 carriers” value is given as 42% and the “ARIA-E incidence, non-carriers” value is reported as 20%. Also, the ARIA-E incidence in series [2] (trial participants receiving 10 mg/kg) is on record as 35%.
